Assay results taken from PMC6006426 (2018).

Tested on: OCT2 and MATE1
Settings: based on Cmax,u with Kp,uu incorporated; mean ± S.D. (n = 11)

## COc1cc2ncnc(Nc3ccc(F)c(Cl)c3)c2cc1OCCCN1CCOCC1 [Gefitinib, gefitinib]
  Prediction of SCr increase, Cmax,u · Kp,uu: 4.27 ± 1.43%
